Antibody variant affinities, Ab-14 heavy chain, assay B

Reference: Li et al. 2023, doi:10.1038/s41467-023-39022-2. File: FLAb, binding data.

Antigen: PDVDLGDISGINAS, a 14-residue peptide of the SARS-CoV-2 spike HR2 region.

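The parent was found by panning a naive human phage display library on the peptide. The variants were designed computationally from a first round of random CDR variants and then made and measured. Group labels follow the data file (Ctrl: baseline library sampled from a position-specific scoring matrix, with some repeated check sequences; GP: Gaussian process model; HC: hill climbing; a sequence that several methods proposed may carry one label only). The scFvs were displayed on barcoded MATa yeast, the peptide on MATalpha yeast. Binding brings cells together so that they mate, and sequencing counts the barcode pairs among the diploids. Read counts were normalised to the haploid input and turned into Kd by a linear fit to BCL2-family pairs of known affinity, for each replicate. There are six technical replicates.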

Ab-14 is the parent antibody, in scFv form: VH, then three GGGGS repeats, then VL. The light chain is unchanged in all variants.
VH: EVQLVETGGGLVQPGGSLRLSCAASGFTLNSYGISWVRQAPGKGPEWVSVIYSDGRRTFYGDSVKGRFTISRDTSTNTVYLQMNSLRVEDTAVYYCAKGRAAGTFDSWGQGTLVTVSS
VL: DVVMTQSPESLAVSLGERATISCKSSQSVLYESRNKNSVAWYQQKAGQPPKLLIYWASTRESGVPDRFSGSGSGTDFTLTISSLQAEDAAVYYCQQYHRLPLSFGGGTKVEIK

The whole VH of each variant is written out.
The read-out is the apparent dissociation constant on a log10 scale (nM): the lower, the stronger.
A pair that was not seen in that replicate is written "n.d."; this usually means weak binding, but a binder can also be missed.
Three control strains display no target. For all heavy chain designs, 1% of the pairings with them gave a signal, with a median of 2.08 and one signal in twenty below 0.84, so weak values seen in few replicates may be background. Also given: how often the same scFv was detected with the empty control strains, with their mean in brackets.

| # | VH | group | log10 Kd, replicates | empty controls |
|---|---|---|---|---|
| 1 | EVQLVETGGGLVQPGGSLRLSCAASGFALNSYGISWVRQAPGKGPEWVSVIYSDGRRTFYGDSVKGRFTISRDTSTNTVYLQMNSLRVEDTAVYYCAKRRAAGTFDSWGQGTLVTVSS | Ctrl | n.d. / n.d. / n.d. / n.d. / n.d. / n.d. | 0 of 18 |
| 2 | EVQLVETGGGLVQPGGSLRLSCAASGIWLNSYGISWVRQAPGKGPEWVSVIYSDGRRTFYGDSVRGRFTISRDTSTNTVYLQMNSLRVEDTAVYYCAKGRAAGTFDSWGQGTLVTVSS | Ctrl | n.d. / n.d. / 2.13 / n.d. / n.d. / n.d. | 0 of 18 |
| 3 | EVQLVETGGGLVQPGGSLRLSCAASGFTLNLAGISWVRQAPGKGPEWVSVIYSDGRRTWYQDSVKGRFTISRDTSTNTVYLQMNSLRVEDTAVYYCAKGRAAGTFDSWGQGTLVTVSS | Ctrl | n.d. / n.d. / n.d. / n.d. / n.d. / n.d. | 0 of 18 |
| 4 | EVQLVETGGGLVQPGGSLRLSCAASGFTLNSYGISWVRQAPGKGPEWVSVIYSDGMRTFYGDSVKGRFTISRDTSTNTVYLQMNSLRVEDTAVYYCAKGYMAGTFDSWGQGTLVTVSS | Ctrl | n.d. / n.d. / n.d. / n.d. / n.d. / n.d. | 1 of 18 (2.00) |
| 5 | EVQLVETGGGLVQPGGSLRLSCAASGFSLNSYGISWVRQAPGKGPEWVSVIYSDGRRTMYGDSVKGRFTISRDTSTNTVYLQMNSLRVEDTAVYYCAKGRAGGMFDSWGQGTLVTVSS | Ctrl | n.d. / n.d. / n.d. / n.d. / n.d. / n.d. | 0 of 18 |
| 6 | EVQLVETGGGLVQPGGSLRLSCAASGFTLWSYGISWVRQAPGKGPEWVSVIYSDGRRTFYGDSVKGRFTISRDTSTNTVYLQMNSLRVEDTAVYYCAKGRAAGTFDSWGQGTLVTVSS | Ctrl | n.d. / n.d. / n.d. / n.d. / n.d. / n.d. | 0 of 18 |
| 7 | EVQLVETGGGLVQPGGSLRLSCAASGFALNSYGISWVRQAPGKGPEWVSVIYSDGRRTFYGDSVKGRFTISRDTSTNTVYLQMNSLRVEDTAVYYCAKGRAAGTFDQWGQGTLVTVSS | Ctrl | n.d. / n.d. / n.d. / n.d. / 3.01 / n.d. | 0 of 18 |
| 8 | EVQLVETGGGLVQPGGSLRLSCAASGFTLNQYGISWVRQAPGKGPEWVSVIYADGRRTFYGDSVKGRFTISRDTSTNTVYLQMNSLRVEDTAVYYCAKGRAAGTFDSWGQGTLVTVSS | Ctrl+GP_HC | 0.10 / -0.16 / -0.02 / -0.23 / 0.09 / 0.13; -0.07 / 0.17 / -0.19 / -0.07 / -0.12 / -0.08 | 0 of 36 |
| 9 | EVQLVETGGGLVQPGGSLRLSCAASGFPLDSYGISWVRQAPGKGPEWVSVIYSDGRRTFYGDSVKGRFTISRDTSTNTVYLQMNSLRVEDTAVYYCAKGRNAGTFDSWGQGTLVTVSS | Ctrl | 1.55 / 1.14 / 1.10 / 1.66 / 0.99 / 1.33 | 0 of 18 |
| 10 | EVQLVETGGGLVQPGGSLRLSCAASGFTLNSYGISWVRQAPGKGPEWVSVIYSDGRRTFYGDSVKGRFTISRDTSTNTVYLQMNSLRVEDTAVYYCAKGVAAGTWDSWGQGTLVTVSS | Ctrl | n.d. / n.d. / n.d. / n.d. / n.d. / n.d. | 0 of 18 |
| 11 | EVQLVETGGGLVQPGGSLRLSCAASGFTLNSYGISWVRQAPGKGPEWVSVIYSDGRRTFYGNDVKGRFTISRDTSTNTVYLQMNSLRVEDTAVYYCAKGRETGTMDSWGQGTLVTVSS | Ctrl | n.d. / n.d. / n.d. / n.d. / n.d. / n.d. | 1 of 18 (1.90) |
| 12 | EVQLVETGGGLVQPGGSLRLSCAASGFTLNSYGISWVRQAPGKGPEWVSVIYSDGRRTMYSNSVKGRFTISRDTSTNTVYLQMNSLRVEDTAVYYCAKGRAAFTFDSWGQGTLVTVSS | Ctrl | n.d. / n.d. / n.d. / n.d. / n.d. / 2.77 | 0 of 18 |
| 13 | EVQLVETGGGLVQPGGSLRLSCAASGFTLNQYGISWVRQAPGKGPEWVSVIYSDGRRTFYGDSVKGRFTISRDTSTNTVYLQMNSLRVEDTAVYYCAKGRAQGTFDSWGQGTLVTVSS | Ctrl | n.d. / n.d. / n.d. / n.d. / n.d. / n.d. | 0 of 18 |
| 14 | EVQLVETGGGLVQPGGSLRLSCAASGFTLNSYGISWVRQAPGKGPEWVSVIYSDGMRTHYGDSVKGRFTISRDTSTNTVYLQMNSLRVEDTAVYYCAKGRAAGTFDSWGQGTLVTVSS | Ctrl | 2.44 / n.d. / 2.34 / n.d. / n.d. / 2.34 | 1 of 18 (2.95) |
| 15 | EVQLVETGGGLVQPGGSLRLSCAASGFTLNSYGISWVRQAPGKGPEWVSVIYADGRRTFYHDSVKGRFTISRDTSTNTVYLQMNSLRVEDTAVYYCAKGRAAGTFDSWGQGTLVTVSS | Ctrl | -0.14 / -0.11 / -0.21 / -0.48 / -0.38 / 0.02 | 0 of 18 |
| 16 | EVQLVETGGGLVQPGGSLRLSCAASGFTLNSYGISWVRQAPGKGPEWVSVIYSDGRRTFYGDDVKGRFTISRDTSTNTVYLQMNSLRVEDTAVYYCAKGRAAGTDDSWGQGTLVTVSS | Ctrl | n.d. / n.d. / n.d. / n.d. / n.d. / n.d. | 0 of 18 |

Picked from the list: the 2 lowest averages where every replicate gave a value.

{"VH": "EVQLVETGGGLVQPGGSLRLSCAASGFTLNSYGISWVRQAPGKGPEWVSVIYADGRRTFYHDSVKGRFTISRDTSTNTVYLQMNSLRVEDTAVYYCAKGRAAGTFDSWGQGTLVTVSS", "group": "Ctrl", "log10 Kd, replicates": "-0.14 / -0.11 / -0.21 / -0.48 / -0.38 / 0.02", "empty controls": "0 of 18"}
{"VH": "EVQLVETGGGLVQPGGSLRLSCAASGFTLNQYGISWVRQAPGKGPEWVSVIYADGRRTFYGDSVKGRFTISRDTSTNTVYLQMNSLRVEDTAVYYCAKGRAAGTFDSWGQGTLVTVSS", "group": "Ctrl+GP_HC", "log10 Kd, replicates": "0.10 / -0.16 / -0.02 / -0.23 / 0.09 / 0.13; -0.07 / 0.17 / -0.19 / -0.07 / -0.12 / -0.08", "empty controls": "0 of 36"}

Some sequences occur more than once in the pool; their replicates are listed entry by entry, parted by semicolons.
The authors averaged sequences with at least three values out of six and counted those with two or fewer as poor binders.
Of ten entries with the parent sequence, four were seen in most replicates (averages 0.34 to 2.37), three in one and three in none, so single entries are noisy.
A sequence measured in both rounds can read differently, since the two assays cover different ranges.